Values quoted from earlier work in patent publication US7115571B1, “Retro-inverso peptides derived from interleukin-3” (Myelos Corporation, priority 2000, dated 2006).

Details: intravenously injected

B1: IL-3: native cytokine; glycoprotein acting on hematopoietic target cells (protein, UniProt P08700 20-152, looked up)
Interleukin-3: APMTQTTPLKTSWVNCSNMIDEIITHLKQPPLPLLDFNNLNGEDQDILMENNLRRPNLEAFNRAVKSLQNASAIESILKNLLPCLPLATAAPTRHPIHIKDGDWNEFRRKLTFYLKTLENAQAQQTTLSLAIF
- half-life: ~40 min
